# Measured affinities in a library of Ab-14 light chain variants

The target is the same throughout: PDVDLGDISGINAS, from the HR2 region of SARS-CoV-2 spike.

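Phage display of a naive human antibody library on the peptide gave the parent. Designed CDR sequences, proposed from the first random library and measured here. Their group label is 14L_GP_HC (GP: Gaussian process model; HC: hill climbing; a sequence that several methods proposed may carry one label only). AlphaSeq pools MATa yeast showing the antibodies with MATalpha yeast showing the peptide. Binding brings cells together so that they mate, and sequencing counts the barcode pairs among the diploids. Scores were corrected for input abundance and mapped to Kd with protein pairs of known affinity run in the same pool. The assay was run in six technical replicates.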

Each scFv is VH, three GGGGS repeats, VL, as in the parent Ab-14, and differs from it in the CDRs of the light chain only.
VH: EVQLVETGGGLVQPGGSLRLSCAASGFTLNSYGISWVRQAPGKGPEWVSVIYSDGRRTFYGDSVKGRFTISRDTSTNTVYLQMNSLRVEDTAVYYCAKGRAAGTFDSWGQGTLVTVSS
VL: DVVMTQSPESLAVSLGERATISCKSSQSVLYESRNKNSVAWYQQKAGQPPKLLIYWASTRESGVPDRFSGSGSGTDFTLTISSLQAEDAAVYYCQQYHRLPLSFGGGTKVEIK

The parent's light chain CDRs are KSSQSVLYESRNKNSVA, WASTRES, QQYHRLPLS; each variant's own CDRs replace them letter for letter.
Values are log10 of the apparent Kd in nM; lower means stronger binding.
A pair that was not seen in that replicate is written "ND"; this usually means weak binding, but a binder can also be missed.
As a blank, each scFv also met three strains without target: over all light chain designs, 4% of these pairings were detected, typically at 2.64 and seldom below 1.59. For each scFv, signals with the empty controls are counted beside the result, with their mean in brackets.

CDR-L1,CDR-L2,CDR-L3,"log10 Kd, replicates",signal with controls
KSSYSYLYESRNKNSVA,EASTREQ,QQYHRLPLS,0.12 -0.07 -0.07 -0.09 0.02 0.05,2/18 (2.37)
KFSQSVLYESRTQNSVA,NASTRES,QCYHRLPLS,0.39 0.69 0.41 0.23 0.48 0.51,0/18
KMEQGTLYESRNKGSVA,GASVRES,QQYHRLPLS,0.47 0.32 0.05 0.33 0.31 0.38,1/18 (2.30)
KMEQGDLYESRNKGSVA,GASVRES,QQYHRLPLS,-0.53 -0.54 -0.63 -0.75 -0.58 -0.45,0/18
DFSQSWLYESRNKNSVA,GASTRES,QQYHRLPLS,0.26 -0.14 0.19 0.07 0.07 0.39,0/18
KSSQSELFESRNKNSVA,DASTRES,QQYHRLPLS,-0.08 -0.32 -0.44 -0.17 -0.29 -0.16,1/18 (2.11)
HSSPSVAYESRNKNSVA,GASTRES,QQYHRLPLS,0.31 0.32 -0.20 0.00 0.04 0.31,0/18
KSSWSVLYESHNKNSVA,NASTRMS,QQYHRLPLS,0.47 0.18 0.42 0.28 0.27 0.29,0/18
KMEQGNLYESRNKNSVA,GASVRES,QQYHRLPLS,-0.06 -0.32 -0.55 -0.27 -0.38 -0.41,1/18 (1.84)
KQSQSVLYEWRNSNSVA,DASTRES,QQYHRLPLS,0.59 0.59 0.42 0.24 0.33 0.47,0/18
KLKQSTLYESRNKNSVA,NASTRLS,QQYHRLPLS,0.47 0.15 0.61 0.26 0.49 0.60,1/18 (1.89)
KSLQSKLYESRNKNSVA,HASTRED,QQYHQLPLS,0.23 -0.02 0.24 0.22 0.23 0.35,1/18 (2.34)
KMSQSVLYESRNKNSVA,MASTRES,QQYHRLPLS,0.51 0.29 0.06 -0.06 0.12 0.22,2/18 (2.17)
KQSQSVLYESRNKNNVA,DASTRMS,QQYHRLPLS,-0.27 -0.53 -0.58 -0.68 -0.55 -0.51,0/18
KSSQSWDYESRNKNSVA,GASTREN,QQYHRLPLS,-0.15 -0.10 -0.26 -0.45 -0.26 -0.15,2/18 (3.75)
KSLQSQDYESRNKNSVA,HASTRED,QQYHRLPLS,1.15 0.31 0.31 0.17 0.40 1.14,0/18
KDSQSWLYESRNKNSVA,GASTRES,QQYHRLPLS,0.55 -0.03 -0.10 -0.19 0.06 -0.03,0/18
KSSMSWLYESRNKNSVA,GASTRES,QQYHRLPLS,-0.19 -0.21 -0.28 -0.42 -0.31 -0.22,1/18 (2.52)
KSSQSILYESVNSNSVA,HASTRES,QQYHRLPLS,0.51 0.42 0.26 0.47 0.50 0.30,1/18 (1.91)
KLPQSTLYESRNQNSVA,WASTRES,QQYHRLPLS,0.73 0.46 0.78 0.36 0.45 0.45,1/18 (1.50)
KSSQSWLYESRNKNSVA,GASVRES,QQYHRLPLS,0.12 0.05 -0.19 -0.15 0.02 0.12,0/18
KLSQQTLYETRNKNSVA,WASTREE,QQYHRLPLS,ND ND ND ND ND ND,0/18
KSSWSHLYESRNKNSVA,DASTRES,QQYHRLPLS,0.06 -0.24 -0.30 -0.07 -0.14 0.03,2/18 (2.30)
KMDQGALYESRNKNSVA,GASTRES,QQYHRLPLS,2.03 0.86 0.67 0.74 0.74 1.19,1/18 (1.30)
KSSESVLYESHNKNSVA,NASTRMS,QQYHRLPLS,1.94 1.18 1.32 1.39 1.52 1.28,2/18 (2.76)
IAVQSWLYESRNKNSVA,GASTRED,QQYHRLPLI,0.51 1.04 1.03 0.72 0.71 1.24,0/18
KSSISNLYESRNKNSVA,EASTREQ,QQYHRLPLS,0.41 0.15 0.10 -0.01 0.06 0.14,2/18 (2.67)
HFSPSVAYESRNKNSVA,NASTRES,QQYHRLPLS,-0.53 -0.61 -0.53 -0.80 -0.59 -0.48,0/18
KFSPSVLYESHNKNSVA,NASTRMS,QQYHRLPLS,-0.22 -0.16 -0.48 -0.04 -0.34 -0.25,0/18
KSLQSVGYEQRNKNSVA,HASTRED,QQYHRLPLS,0.99 -0.04 0.19 0.46 1.00 0.51,0/18
KLSQSVDFESRNKNSVA,DASTRES,QQYHRLPLS,0.01 -0.05 0.00 -0.13 -0.04 0.25,1/18 (2.79)
HLSDSVLYESRNKNSVA,NASTRES,QQYHRLPLG,0.07 -0.28 -0.38 -0.26 -0.53 -0.06,0/18
KVSQSHLYESRMKNSVA,DASTRCS,QQYHRLPLS,-0.22 -0.24 -0.43 -0.35 -0.50 -0.31,2/18 (3.26)
KFSQDVLYESRTKNSVA,NASTRES,QQYHRLPLS,0.50 0.29 0.23 0.38 0.02 0.41,2/18 (3.37)
KSSPSGLYESRMKNSVA,HASTRES,QQYHRLPLS,1.72 0.09 -0.27 -0.45 0.43 0.20,0/18
KVEQGVLYESRNKGSVA,GASVRES,QQYHRLPLS,0.12 -0.49 -0.43 -0.68 -0.35 -0.30,0/18
KSSESYLYESRNKNSVA,EASTRES,QQYHRLPLM,0.16 -0.01 -0.21 -0.16 0.05 0.48,0/18
SLSQSVLYESRNKNSVA,HASLRED,QQYHRLPLS,0.01 -0.07 -0.17 -0.07 -0.06 -0.02,0/18
KSSQSFLYESRNVNSVA,AASTRES,QQYHRLPLS,0.18 0.01 0.14 -0.09 0.05 0.24,0/18
KSQQSWLYESRNKNSVA,NASTRED,QQYHRLPLS,1.93 ND ND 2.14 ND 2.66,1/18 (1.80)
HSSPSVLYESRNKNSVA,AGSTRES,QQYHRLPLS,0.01 -0.24 0.07 -0.36 -0.68 0.06,0/18
KFSQSVLYESRTSNRVA,NGSTRES,QQYHRLPLS,0.57 0.22 -0.08 0.41 0.03 0.26,1/18 (2.04)

A selection of 3 entries from above:

{"CDR-L1": "KQSQSVLYEWRNSNSVA", "CDR-L2": "DASTRES", "CDR-L3": "QQYHRLPLS", "log10 Kd, replicates": "0.59 0.59 0.42 0.24 0.33 0.47", "signal with controls": "0/18"}
{"CDR-L1": "DFSQSWLYESRNKNSVA", "CDR-L2": "GASTRES", "CDR-L3": "QQYHRLPLS", "log10 Kd, replicates": "0.26 -0.14 0.19 0.07 0.07 0.39", "signal with controls": "0/18"}
{"CDR-L1": "KMEQGTLYESRNKGSVA", "CDR-L2": "GASVRES", "CDR-L3": "QQYHRLPLS", "log10 Kd, replicates": "0.47 0.32 0.05 0.33 0.31 0.38", "signal with controls": "1/18 (2.30)"}

The authors' rule: three or more of the six replicates give a measured affinity, fewer mean a poor binder.
A sequence measured in both rounds can read differently, since the two assays cover different ranges.
The parent sequence was in this pool as ten entries: three were never detected, three once, and four in most replicates, with averages from 0.34 to 2.37.

Source: Li et al. 2023 (doi:10.1038/s41467-023-39022-2), MIT Lincoln Laboratory and A-Alpha Bio; data file from the FLAb repository.